Assay [1] concerns the target T1, Bromodomain-containing protein 4 (Homo sapiens, UniProt O60885). As to the kind of experiment: Inhibition of recombinant His-tagged BRD4 bromodomain 2 (E352 to E168 residues) (unknown origin) after 1 hr by TR-FRET assay. Background: In TR-FRET formats the signal depends on donor and acceptor labels being close together.
The target in assay [2] is T1, Bromodomain-containing protein 4. As to the kind of experiment: Inhibition of recombinant His-tagged BRD4 bromodomain 1 (K57 to E168 residues) (unknown origin) after 1 hr by TR-FRET assay.
In another assay the test system is MX1. The assay can be described thus: Antiproliferative activity against human MX1 cells incubated for >= 72 hrs by CellTiter-Glo assay. The class given is functional, cell-based. To be noted: MX1, 72 h.

As a reminder, the IC50 is the midpoint of a concentration-inhibition curve. On to `CCOc1cc(=O)n(C)cc1-c1cc(N(CC2CC2)S(=O)(=O)CC)ccc1Oc1ccc(F)cc1F`, for which the figures for the IC50 in assay [1] and in assay [2] were 2.3 nM and 61 nM, respectively.
The term EC50 denotes the midpoint of the concentration-response curve. A high value points to a need for much substance. With `CC(=O)Nc1ccc(CNc2cccc(Oc3ccc(S(C)(=O)=O)cc3-c3cn(C)c(=O)c4[nH]ccc34)c2)cc1`, a half-maximal response in the assay on MX1 (EC50) required 14 nM.
The same measure, in the same setting: with `CCS(=O)(=O)c1ccc(OCC2CC2(F)F)c(-c2cn(C)c(=O)c3[nH]c(C#CCN(C)C)cc23)c1` (centres undefined) the figure was 9.4 nM.

Values taken from ChEMBL document CHEMBL4043066, “Drug Discovery Targeting Bromodomain-Containing Protein 4” (J Med Chem, 2017).
